Only a part is listed here, and it is no random draw. Inconclusive results are not listed. Active and inactive are the calls of the source.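 The calls were made as follows: active = thallium entry rate above the same plate's blocked-transporter control wells by more than 3 SD; inconclusive = the two repeat wells disagree; inactive = the rest.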
Experiment: FluoZin2 fluorescence counter-screen of MLSMR hits on KCC2-expressing cells (AID 1714);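 also: raw slope of fluorescence over initial fluorescence between 10 and 20 s after thallium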
Details: HEK293-KCC2 + bumetanide/ouabain, at 10 µM, hits give high values
Method in brief: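 Test system: KCC2-expressing HEK cells; Reagent: thallium stimulus; Dosing: single compound dose, 10 µM final, 0.1% DMSO; Schedule: overnight culture 37 °C, dye loading 48 min; Detection: FluoZin2 thallium-flux fluorescence; Read-out basis: baseline-normalized fluorescence (F/F0) slope, 10–20 s post thallium.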

SMILES | normalized thallium flux
O=c1c2cc([N+](=O)[O-])ccc2[nH]c2c([N+](=O)[O-])cc([N+](=O)[O-])cc12 | active: 0.0476
C[N+]1=C2C=CC=CC=C2SC12C([N+](=O)[O-])=CC([N+](=O)[O-])=C[C-]2[N+](=O)[O-] (configuration not stated) | active: 0.0186

Source: PubChem BioAssay AID1714 (Vanderbilt High Throughput Screening Facility, 2009)
